Assay results taken from patent US20180008593A1 (Purdue Pharma L.P., priority 2005, published 2018).

Tested on: experimental human pain model, healthy volunteers
Assay: Pain-related evoked potentials (EEG) after CO2 stimulation of the nasal mucosa, Example 4
Assay type: in vivo
Details: 60% CO2; 20 mg oxycodone in combination with 45 mg naloxone
Experimental: This was a single site, single dose, double blind, placebo-controlled, 5-treatment, 5-period, randomized, balanced crossover study in healthy adult male and female subjects. […] Subjects were allocated each of the 5 treatments described in the synopsis according to a random allocation schedule (RAS). There was a 7-day washout period
Analgesic effects were assessed by means of an experimental human pain model based on the chemosomatosensory pain-related cortical potentials (CSSEPs) and pain-ratings after specific phasic nociceptive stimulation of the nasal mucosa with gaseous CO2. […]
In the first 20 minutes, 40 phasic CO2-stimuli were applied (20 stimuli at a concentration of 70% and 20 at a concentration of 60%, interstimulus interval 30 s). In response to these stimuli, pain-related potentials and subjective intensity estimates were recorded. […]
The EEG was recorded from 5 positions of the international 10/20 system (Cz, C3, C4, Fz and Pz; see FIG. 40) referenced to linked earlobes (A1+A2). Possible eye blink artifacts were monitored from an additional site (Fp2/A1+A2). […] The recorded analog EEG segments were then converted to digital and filed electronically. The average value for each recording position was separately calculated, discarding all eye blink contaminated records. […]

C=CCN1CC[C@]23c4c5ccc(O)c4O[C@H]2C(=O)CC[C@@]3(O)[C@H]1C5 [Naloxone, naloxone]
Magnitude of reduction of amplitude P1N1 at C4 compared to baseline: 12.8%
